Results: publication PMC10698161, “Investigation of monoclonal antibody CSX-1004 for fentanyl overdose” (2023)
“And” between values parts separate entries of the source, which are not always exact repeats. Equal entries are not always repeated.

Legend:
[1] = system: opioid-induced respiratory depression (OIRD); assay: NHP respiration procedure (whole-body plethysmography, opioid-induced respiratory depression); details: for Opioid ED50, Respiration: linear regression analysis; for ED50 ± SEM: Respiration
[2] = system: opioid response-rate decreasing effects; assay: NHP food-maintained operant responding procedure; details: linear regression analysis
opioid antinociception = assay: NHP antinociception (warm water tail withdrawal procedure); details: for Opioid ED50, Tail Withdrawal: linear regression analysis; for Fig 6B Tail Withdrawal (% of Baseline): opioid 0.032 mg/kg, individual NHPs; for Fig 6B Tail Withdrawal Latency to Nociception: individual NHP
[3] = system: carfentanil-induced respiratory depression; assay: Reversal of carfentanil-induced respiratory depression in mice (whole-body plethysmography); details: IV naloxone 1 mg/kg or IV CSX-1004 60 mg/kg at 15 min after carfentanil
[4] = human; cited from earlier work

COc1ccc2c3c1O[C@H]1C(=O)CC[C@@]4(O)[C@@H](C2)N(C)CC[C@]314
Opioid ED50, Respiration ([1]; Pre-mAb): 0.475 mg/kg | ED50 ± SEM ([1]; Pre-mAb): 0.475 mg/kg | ED50 ± SEM ([1]; after 40 mg/kg CSX-1004): 0.475 mg/kg | Opioid ED50, Respiration ([1]; mAb 10 mg/kg): 0.609 mg/kg | Opioid ED50, Respiration ([1]; mAb 40 mg/kg): 0.475 mg/kg | Opioid ED50, Response Rate ([2]; Pre-mAb): 0.34 mg/kg | Opioid ED50, Response Rate ([2]; mAb 10 mg/kg): 0.284 mg/kg | Opioid ED50, Response Rate ([2]; mAb 40 mg/kg): 0.363 mg/kg | Opioid ED50, Tail Withdrawal (opioid antinociception; Pre-mAb): 0.317 mg/kg | Opioid ED50, Tail Withdrawal (opioid antinociception; mAb 10 mg/kg): 0.322 mg/kg | Opioid ED50, Tail Withdrawal (opioid antinociception; mAb 40 mg/kg): 0.389 mg/kg | Fig 6B Tail Withdrawal (% of Baseline) (opioid antinociception; mAb 10 mg/kg (TW)): 0 % of Baseline | Fig 6B Tail Withdrawal (% of Baseline) (opioid antinociception; mAb 40 mg/kg (TW)): 0 % of Baseline | Fig 6B Tail Withdrawal Latency to Nociception (opioid antinociception; oxycodone 0.56 mg/kg, mAb 40 mg/kg): 10 s (2×) and 4.97 s and 7.51 s

CN1CC[C@]23c4c5ccc(O)c4O[C@H]2[C@@H](O)C=C[C@H]3[C@H]1C5
Opioid ED50, Tail Withdrawal (opioid antinociception; Pre-mAb): 0.923 mg/kg | Opioid ED50, Tail Withdrawal (opioid antinociception; mAb 10 mg/kg): 1.22 mg/kg | Opioid ED50, Tail Withdrawal (opioid antinociception; mAb 40 mg/kg): 0.982 mg/kg | Fig 6B Tail Withdrawal Latency to Nociception (opioid antinociception; morphine 1.8 mg/kg, mAb 10 mg/kg): 10 s (2×) and 3.455 s and 8.61 s | Fig 6B Tail Withdrawal Latency to Nociception (opioid antinociception; morphine 1.8 mg/kg, mAb 40 mg/kg): 10 s (2×) and 6.465 s and 9.09 s

C=CCN1CC[C@]23c4c5ccc(O)c4O[C@H]2C(=O)CC[C@@]3(O)[C@H]1C5
time until respiration began to improve compared to saline-treated animals [3]: ≤ 10 min

CC(=O)Oc1ccc2c3c1O[C@H]1[C@@H](OC(C)=O)C=C[C@H]4[C@@H](C2)N(C)CC[C@@]341
time for which overdoses may not be lethal [4]: at least 30 min
